Curated experimental data: melting point values

From the experimental data distributed with OPERA 2.9.

Melting points are in °C.
The databases behind each value are named after "via".

S=C=Nc1ccc2ccccc2c1 [2-ISOTHIOCYANONAPHTHALENE] has MP 60 °C (via OCHEM).
O=c1c2ccccc2nnn1CO [3-(Hydroxymethyl)-1,2,3-benzotriazin-4(3H)-one] has MP 134 °C (via OCHEM).
COc1cccc(CNC(=O)CCl)c1 [2-Chloro-N-[(3-methoxyphenyl)methyl]acetamide] has MP 102 °C (via OCHEM).
CC(C)(C)N(NC(=O)c1ccccc1)C(=O)c1cccc(C#N)c1 [N'-Benzoyl-N-tert-butyl-3-cyanobenzohydrazide] has MP 174 °C (via OCHEM).
O=[N+]([O-])c1ccc(Cl)c2cccnc12 [5-Chloro-8-nitroquinoline] has MP 134 °C (via OCHEM).
CC(=O)Nc1ccc(S(=O)(=O)N(C)CC(=O)O)cc1 [[(4-Acetylamino-benzenesulfonyl)-methyl-amino]-acetic acid] has MP 226 °C (via OCHEM).
CC(=O)[O-].CCN(CC[N+](C)(C)CC(C)O)c1ccc(/N=N/c2ccc([N+](=O)[O-])cc2Cl)cc1 (stereo partly drawn) has MP 187.5 °C (via eChemPortal).
O=c1[nH]c(CN2CCOCC2)nc2sc3c(c12)CCCC3 has MP 163 °C (via OCHEM).
O=c1[nH]snc1N1CCOCC1 [4-(Morpholin-4-yl)-1,2,5-thiadiazol-3-ol] has MP 193 °C (via OCHEM).
CC(=O)c1cnn(C)c1C [1-(1,5-dimethyl-1H-pyrazol-4-yl)ethanone] has MP 48 °C (via OCHEM).
CC(Oc1ccc(F)cc1)C(=O)NN (stereo not given) [2-(4-fluorophenoxy)propanohydrazide] has MP 166 °C (via OCHEM).
O=C(O)CCC(=O)c1ccc2c(c1)CCCC2 [5,6,7,8-Tetrahydro-gamma-oxonaphthalene-2-butyric acid] has MP 123 °C (via OCHEM).
O=C(O)CS(=O)(=O)c1ccc([N+](=O)[O-])cc1 [[(4-nitrophenyl)sulfonyl]acetic acid] has MP 163 °C (via OCHEM).
Cc1n[nH]c(C)n1 [1H-1,2,4-Triazole, 3,5-dimethyl-] has MP 129 °C (via OCHEM).
CCOC(=O)c1c(C)oc(N)c1C#N [Ethyl 5-amino-4-cyano-2-methylfuran-3-carboxylate] has MP 99 °C (via OCHEM).
O=C(O)c1cccc(C(=O)O)n1 [2,6-Pyridinedicarboxylic acid] has MP 241.2 °C (via PubChem, eChemPortal).
CC(Cl)C(=O)NC(c1ccccc1)c1ccccc1 (stereo not given) [N-benzhydryl-2-chloropropanamide] has MP 134 °C (via OCHEM).
Cc1cc(-c2csc(N)n2)c(C)s1 [4-(2,5-dimethylthien-3-yl)-1,3-thiazol-2-amine] has MP 73 °C (via OCHEM).
CC(=O)NC12CC3CC(C1)CC(C(=O)O)(C3)C2 [3-Acetylamino-adamantane-1-carboxylic acid] has MP 259 °C (via OCHEM).
C=CCNc1nc(-c2ccccc2)cs1 [Allyl-(4-phenyl-thiazol-2-yl)-amine] has MP 75 °C (via OCHEM).
O=C(Cl)C=Cc1cccc(C(F)(F)F)c1 [3-(Trifluoromethyl)cinnamoyl chloride] has MP 29.5 °C (via OCHEM).
O=C(O)C1CCCN1C(=O)C12CC3CC(CC(C3)C1)C2 (stereo not given) [1-(Adamantane-1-carbonyl)-pyrrolidine-2-carboxylic acid] has MP 194 °C (via OCHEM).
Cc1ccc(C(C)C)c(OCC(=O)O)c1 [2-(2-isopropyl-5-methylphenoxy)acetic acid] has MP 127 °C (via OCHEM).
O=C(c1ccc(Cl)cc1)c1ccsc1 [(4-Chlorophenyl)(thiophen-3-yl)methanone] has MP 93 °C (via OCHEM).
Nc1cc(I)ccc1Cl [2-Chloro-5-iodoaniline] has MP 57 °C (via OCHEM).
Cc1ccc2[nH]c3c(c2c1)CCCC3=O [6-Methyl-2,3,4,9-tetrahydro-1H-carbazol-1-one] has MP 186 °C (via OCHEM).
O=C(O)c1cc2cccc(Br)c2o1 [7-Bromo-1-benzofuran-2-carboxylic acid] has MP 257 °C (via OCHEM).
ClCC12CC3CC(CC(C3)C1)C2 [1-(chloromethyl)adamantane] has MP 40 °C (via OCHEM).
CN[C@@H]1[C@H](O[C@H]2[C@H](O[C@H]3[C@H](O)[C@@H](O)[C@H](NC(=N)N)[C@@H](O)[C@@H]3NC(=N)N)O[C@@H](C)[C@]2(O)C=O)O[C@@H](CO)[C@H](O)[C@H]1O [Streptomycin A] has MP 12 °C (via OCHEM).
NC(=O)c1cc(-c2ccccc2)sc1N [2-amino-5-phenylthiophene-3-carboxamide] has MP 205 °C (via OCHEM).
Cc1ccc(S(=O)(=O)N(C)C)cc1N [Benzenesulfonamide, 3-amino-N,N,4-trimethyl-] has MP 173 °C (via OCHEM).
O=C(O)CCCSc1ccc(Cl)cc1 [4-[(4-Chlorophenyl)sulfanyl]butanoic acid] has MP 107 °C (via OCHEM).
O=C(O)C1COc2ccc(Cl)cc2C1 (stereo not given) [6-Chloro-3,4-dihydro-2H-1-benzopyran-3-carboxylic acid] has MP 86 °C (via OCHEM).
Nc1nc(-c2ccc(F)cc2)cs1 [4-(4-fluorophenyl)-1,3-thiazol-2-amine] has MP 112 °C (via OCHEM).
O=C(O)Cc1cn2ccsc2n1 [Imidazo[2,1-b]thiazol-6-yl-acetic acid] has MP 182 °C (via OCHEM).
O=C(O)CN1C(=O)COc2ccccc21 [(3-oxo-2,3-dihydro-4H-1,4-benzoxazin-4-yl)acetic acid] has MP 230 °C (via OCHEM).
Cc1n[nH]c(C)c1[N+](=O)[O-] [Pyrazole, 3,5-dimethyl-4-nitro-] has MP 122 °C (via OCHEM).
Nc1cc(-c2cccc([N+](=O)[O-])c2)[nH]n1 [3-(3-nitrophenyl)-1H-pyrazol-5-amine] has MP 138 °C (via OCHEM).
CNC(=O)c1ccccc1O [Salicylamide, N-methyl-] has MP 84 °C (via OCHEM).
O=C(O)CCOc1ccccc1F [3-(2-fluorophenoxy)propanoic Acid] has MP 113 °C (via OCHEM).
Fc1ccc(C(CCCCl)c2ccc(F)cc2)cc1 [1,1'-(4-Chlorobutylidene)bis(4-fluorobenzene)] has MP 5 °C (via eChemPortal).
FC(F)(F)C(F)(F)C(F)(F)C(F)(F)C(F)(F)C(F)(F)C(F)(F)C(F)(F)C(F)(F)C(F)(F)CC1CO1 (stereo not given) [((Perfluorodecyl)methyl)oxirane] has MP 61.5 °C (via ChemicalBook).
CC1CCC2(CC1)NC(=O)N(N)C2=O (stereo not given) [3-amino-8-methyl-1,3-diazaspiro[4.5]decane-2,4-dione] has MP 119 °C (via OCHEM).
NS(=O)(=O)c1cccc(C(=O)O)c1 [3-sulfamoylbenzoic acid] has MP 239 °C (via OCHEM).
Cc1cc(C)c(C(N)=O)c(Cl)n1 [2-Chloro-4,6-dimethylnicotinamide] has MP 173 °C (via OCHEM).
CC(Sc1ccc(Cl)cc1)C(=O)O (stereo not given) [2-[(4-chlorophenyl)sulfanyl]propanoic acid] has MP 107 °C (via OCHEM).
COc1ccccc1C(=O)N(NC(=O)c1ccccc1)C(C)(C)C [N'-Benzoyl-2-methoxy-N-(2-methyl-2-propanyl)benzohydrazide] has MP 182 °C (via OCHEM).
CS(=O)(=O)c1nc2ccccc2[nH]1 [2-(methylsulfonyl)-1H-benzimidazole] has MP 190 °C (via OCHEM).
Cc1ccc2c(c1)Sc1cc(C)ccc1O2 [2,8-Dimethylphenoxathiine] has MP 71.67 °C (via eChemPortal).
Ic1c(-c2ccccc2)cccc1-c1ccccc1 [2'-Iodo-1,1':3',1''-terphenyl] has MP 114.5 °C (via OCHEM).
NS(=O)(=O)C#Cc1ccccc1 [2-Phenylethynesulfonamide] has MP 137 °C (via OCHEM).
CC(Oc1ccc(C(C)(C)C)cc1)C(=O)O (stereo not given) [2-(4-tert-butylphenoxy)propanoic acid] has MP 94 °C (via OCHEM).
CCCCCCC(O)CCCCCCCCCCC(=O)[O-].CCCCCCC(O)CCCCCCCCCCC(=O)[O-].[Ca+2] (stereo not given) [Octadecanoic acid, 12-hydroxy-, calcium salt (2:1)] has MP 179.2 °C (via eChemPortal).

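OPERA's authors assembled the values from existing databases and did not measure them anew. The files give a single number for a compound and property, which may rest on several reports. Method, purity and exact conditions of the single measurements are not given. The measured form (salt, isomer or mixture) is not always the one drawn. Some entries may be limits or estimates that an upstream database listed as plain numbers.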